According to PubChem BioAssay AID485317 (Broad Institute, 2010):
This is a selection; strong and weak results do not stand in their true shares. Calls of active or inactive are those of the source.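 Rule for the calls: active = mean replicate inhibition above about 79%, with every replicate also reaching it (limit read from the data); inconclusive = only one of the two criteria met; inactive = mean below limit and not every replicate reaching it.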

By UniProt entry, the sequences of proteins in these tests, tags left out.
UniProt P55789, whole entry: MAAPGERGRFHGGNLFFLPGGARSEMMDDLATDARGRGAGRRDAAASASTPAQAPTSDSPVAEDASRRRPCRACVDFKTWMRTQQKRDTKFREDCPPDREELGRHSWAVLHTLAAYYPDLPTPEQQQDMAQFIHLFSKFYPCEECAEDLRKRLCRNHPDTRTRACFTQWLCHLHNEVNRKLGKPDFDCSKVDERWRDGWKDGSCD

molecular target: FAD-linked sulfhydryl oxidase ALR (Homo sapiens) (UniProt P55789); test: ALR-catalysed DTT oxidation blockers – biochemical, H2O2 detection, HRP-luminol luminescence, single point, primary screen (AID 485317); settings: purified ALR, active compounds read high, concentration not given here

Structure (SMILES)	inhibition
CN(C(=O)Cc1ccc(Cl)c(Cl)c1)[C@H]1CCCC[C@@H]1N1CCCC1	inactive: -18.3%
